Experimental data as given in patent US6420558B1, “Aminopiperidine derivates as integrin αvβ3 antagonists” (Meiji Seika Kaisha, Ltd., priority 1998, dated 2002).

Protein sequences, listed by entry. Tags and fused reporters are not part of them. Residues count along the entry.
UniProt P05556, 21-798 limits assumed: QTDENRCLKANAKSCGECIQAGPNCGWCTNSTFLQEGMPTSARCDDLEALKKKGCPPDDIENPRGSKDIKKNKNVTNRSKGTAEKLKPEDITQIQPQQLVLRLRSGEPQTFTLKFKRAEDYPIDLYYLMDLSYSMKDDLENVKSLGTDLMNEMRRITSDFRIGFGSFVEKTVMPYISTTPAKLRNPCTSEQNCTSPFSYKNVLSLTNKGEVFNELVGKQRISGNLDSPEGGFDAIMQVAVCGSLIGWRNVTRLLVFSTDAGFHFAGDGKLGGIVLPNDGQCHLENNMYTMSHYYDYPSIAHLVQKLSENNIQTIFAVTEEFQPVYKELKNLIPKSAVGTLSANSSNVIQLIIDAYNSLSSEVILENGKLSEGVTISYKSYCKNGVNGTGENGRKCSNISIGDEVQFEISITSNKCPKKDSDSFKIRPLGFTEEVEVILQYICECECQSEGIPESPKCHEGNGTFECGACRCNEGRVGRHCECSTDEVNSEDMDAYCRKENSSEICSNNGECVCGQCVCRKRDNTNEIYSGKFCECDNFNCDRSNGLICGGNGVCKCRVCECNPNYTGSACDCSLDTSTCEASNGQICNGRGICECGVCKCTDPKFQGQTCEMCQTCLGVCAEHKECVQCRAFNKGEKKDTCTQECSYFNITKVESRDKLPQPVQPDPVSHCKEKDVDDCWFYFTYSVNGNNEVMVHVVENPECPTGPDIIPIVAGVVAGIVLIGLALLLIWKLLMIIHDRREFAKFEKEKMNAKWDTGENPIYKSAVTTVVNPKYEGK
UniProt P08648, 42-894 limits assumed: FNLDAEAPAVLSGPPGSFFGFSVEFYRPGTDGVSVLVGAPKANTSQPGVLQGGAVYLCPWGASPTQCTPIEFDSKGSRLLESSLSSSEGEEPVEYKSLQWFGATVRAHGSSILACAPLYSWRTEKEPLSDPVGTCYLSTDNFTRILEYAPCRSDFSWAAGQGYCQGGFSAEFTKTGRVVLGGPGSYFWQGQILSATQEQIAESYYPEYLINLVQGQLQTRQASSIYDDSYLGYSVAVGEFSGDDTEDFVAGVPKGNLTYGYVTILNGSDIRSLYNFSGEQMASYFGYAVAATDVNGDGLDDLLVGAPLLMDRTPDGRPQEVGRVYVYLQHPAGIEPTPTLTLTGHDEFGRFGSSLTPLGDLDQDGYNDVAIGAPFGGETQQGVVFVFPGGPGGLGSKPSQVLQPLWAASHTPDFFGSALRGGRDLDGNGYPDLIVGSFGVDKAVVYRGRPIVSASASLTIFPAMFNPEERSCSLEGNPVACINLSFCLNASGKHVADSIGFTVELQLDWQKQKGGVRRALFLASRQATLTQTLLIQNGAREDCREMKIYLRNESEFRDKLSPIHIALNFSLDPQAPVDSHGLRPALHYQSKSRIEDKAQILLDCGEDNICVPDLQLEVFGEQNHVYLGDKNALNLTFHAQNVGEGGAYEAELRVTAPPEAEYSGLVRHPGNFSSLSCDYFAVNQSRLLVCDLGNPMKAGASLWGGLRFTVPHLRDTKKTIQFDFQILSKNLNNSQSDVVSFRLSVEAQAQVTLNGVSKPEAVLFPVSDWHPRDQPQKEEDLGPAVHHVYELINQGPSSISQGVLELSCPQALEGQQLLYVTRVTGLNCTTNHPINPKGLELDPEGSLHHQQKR
UniProt P08648, 895-1049 limits assumed: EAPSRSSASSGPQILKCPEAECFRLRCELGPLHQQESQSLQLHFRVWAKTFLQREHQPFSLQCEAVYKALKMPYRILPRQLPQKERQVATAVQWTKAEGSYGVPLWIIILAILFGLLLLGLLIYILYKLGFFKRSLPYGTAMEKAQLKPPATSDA

Target: integrin α5β1 (fibronectin receptor purified from the human placenta) (Homo sapiens, UniProt P05556+P08648)
Assay: α5β1 binding assay (fibronectin-fibronectin receptor binding assay)
Details: read-out: α5β1 Binding inhibitory activity; fibronectin binding to human placenta fibronectin receptor
Experimental: Integrin α5β1 antagonistic activity (lethality) was measured for the compounds according to the present invention in a fibronectin-fibronectin receptor binding assay system in accordance with the method of Kouns et al. (W. C. Kouns, D. Kirchhofer, P. Hadvary, A. Edenhofer, T. Weller, G. Pfenninger, H. R. Baumgartner, L. K. Jennings, and B. Steiner, Blood, 80, 2539-2547 (1992)).
Specifically, a fibronectin receptor (protein content: 52.1 μg/ml) purified from the human placenta by the method of Pytela et al. (R. Pytela, M. D. Pierschbacher, S. Argraves, S. Suzuki, and E. Ruoslahti, Method in Enzymology, 144, 475-489 (1987)) was diluted 25 times with TBS (20 mM Tris-HCl, 150 mM NaCl, 1 mM CaCl2, 1 mM MgCl2, pH 7.4), and distributed and coated on wells (50 μl/well) of a plate (Maxisorp, Nunc, 96 well Immuno Plate). […] A 0.1 M citric acid buffer (pH 4.3) containing 0.05% NaN3 was added in an amount of 50 μl/well to stop the reaction, followed by the measurement of the absorbance at 415 nm with a microplate reader (MTP 32, Corona Electric) (reference: 675 nm). The total binding was defined as the absorbance after a reaction using 50 μl of TBS-Tween instead of the test compound, and the non-specific binding (100% inhibition) was defined as the absorbance after a reaction using 50 μl of TBS-Tween containing 2×10^−3 M RGDS. The inhibition was calculated by the following equation: [formula] […]

Q: With `N=C(N)NC1CCN(c2ccc(C(=O)NC[C@H](NS(=O)(=O)c3ccccc3)C(=O)O)cc2)CC1` as the molecule, how does the IC50 read?
A: 2500 nM
